From patent US7781436B2 (Hoffmann-La Roche Inc., priority 2005, dated 2010)

The chains behind the UniProt entries cited, without tags or fusion partners.
UniProt P37288, whole entry: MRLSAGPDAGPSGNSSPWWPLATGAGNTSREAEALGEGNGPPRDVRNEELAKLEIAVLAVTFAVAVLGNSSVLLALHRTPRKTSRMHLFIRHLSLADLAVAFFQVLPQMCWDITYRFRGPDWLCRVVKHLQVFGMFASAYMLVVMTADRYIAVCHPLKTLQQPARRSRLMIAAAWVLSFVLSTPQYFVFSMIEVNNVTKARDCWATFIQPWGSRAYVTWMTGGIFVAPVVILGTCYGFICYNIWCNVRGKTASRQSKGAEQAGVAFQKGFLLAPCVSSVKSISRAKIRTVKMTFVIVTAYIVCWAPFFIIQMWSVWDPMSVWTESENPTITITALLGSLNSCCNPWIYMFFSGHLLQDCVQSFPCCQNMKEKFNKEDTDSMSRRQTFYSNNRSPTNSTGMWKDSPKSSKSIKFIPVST

Molecular target: human V1a receptor (Homo sapiens, UniProt P37288)
Assay: human V1a receptor binding (3H-Vasopressin SPA, membranes of transfected HEK293 cells)
Settings: displacement of 4 nM 3H-Vasopressin, HEK293 cell membranes, Ki by Cheng-Prussoff from IC50
Method: The human V1a receptor was cloned by RT-PCR from total human liver RNA. The coding sequence was subcloned in an expression vector after sequencing to confirm the identity of the amplified sequence. […] Cell membranes were prepared from HEK293 cells transiently transfected with the expression vector and grown in 20 liter fermenters with the following protocol.
50 g of cells are resuspended in 30 ml freshly prepared ice cold Lysis buffer (50 mM HEPES, 1 mM EDTA, 10 mM MgCl2 adjusted to pH=7.4+ complete cocktail of protease inhibitor (Roche Diagnostics)). Homogenized with Polytron for 1 min and sonicated on ice for 2×2 minutes at 80% intensity (Vibracell sonicator). The preparation is centrifuged 20 min at 500 g at 4° C., the pellet is discarded and the supernatant centrifuged 1 hour at 43,000 g at 4° C. (19'000 rpm). The pellet is resuspended in 12.5 ml Lysis buffer+12.5 ml Sucrose 20% and homogenized using a Polytron for 1-2 min. The protein concentration is determined by the Bradford method, and aliquots are stored at −80° C. until use. […] The plate is incubated 1 h at room temperature, centrifuged 1 min at 1000 g and counted on a Packard Top-Count. […] To calculate an IC 50 the curve is fitted using a non-linear regression model (XLfit) and the Ki is calculated using the Cheng-Prussoff equation.

## COc1cccc(OC)c1C1CCN(C(=O)c2cn(Cc3ccc(Cl)nc3)c3cc(Cl)ccc23)CC1
  Ki: 7 nM
